# Measured values taken from US7638490B2, “Methods of affecting feeding and weight in mammals by administration of relaxin-3” (priority 2004, dated 2009).
# Sequences of proteins named here, by UniProt entry; tags and fusion partners are left off. A change or cut given only in a name is not applied to a line headed by its entry.
# UniProt Q9NSD7: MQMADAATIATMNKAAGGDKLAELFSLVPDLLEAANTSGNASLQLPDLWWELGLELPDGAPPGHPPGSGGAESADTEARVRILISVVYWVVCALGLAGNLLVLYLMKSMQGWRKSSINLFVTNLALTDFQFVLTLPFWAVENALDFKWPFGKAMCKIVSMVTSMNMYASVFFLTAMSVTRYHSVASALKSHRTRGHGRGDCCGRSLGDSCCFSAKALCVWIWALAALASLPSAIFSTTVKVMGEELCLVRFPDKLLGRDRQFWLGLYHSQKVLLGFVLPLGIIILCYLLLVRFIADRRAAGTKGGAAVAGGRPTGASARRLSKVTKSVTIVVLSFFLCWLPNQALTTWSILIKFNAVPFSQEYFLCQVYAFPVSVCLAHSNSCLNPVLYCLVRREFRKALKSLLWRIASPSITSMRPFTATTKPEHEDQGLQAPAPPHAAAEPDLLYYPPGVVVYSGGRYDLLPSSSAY
# Tests used:
# [1] = test system: SE302 cells without SALPR expression; test: Specificity control: transcription activity in SE302 cells without SALPR expression; details: 20 μg/ml test compound, 3 μmol/L forskolin, 3 nmol/L relaxin-3
# SALPR = SALPR (Homo sapiens, UniProt Q9NSD7); test: Screening for relaxin-3 antagonistic substance using SALPR-SE302 cells (CRE-PLAP reporter); type: cell-based; details: 20 μg/ml test compound, 3 μmol/L forskolin, 3 nmol/L relaxin-3
smiles,measurement,setting,value
C1=Cc2nonc2C=Cc2nonc2C=Cc2nonc2C=Cc2nonc21,transcription activity in SE302 cells without SALPR expression,[1],did not increase the transcription activity
same,antagonism of suppression of transcription activity by relaxin-3,SALPR,antagonized suppression of transcription activity by relaxin-3
